Source: ChEMBL document CHEMBL4414589, “Development of High-Throughput Fluorescent-Based Screens to Accelerate Discovery of P2X Inhibitors from Animal Venoms” (J Nat Prod, 2019)

Legend:
P2X purinoceptor 4 [1] = biological target: T1, P2X purinoceptor 4 (Homo sapiens, UniProt Q99571); experiment: Antagonist activity at human P2X4R transfected in HEK293 cells; type: cell-based
T1 sequence (Q99571 whole entry): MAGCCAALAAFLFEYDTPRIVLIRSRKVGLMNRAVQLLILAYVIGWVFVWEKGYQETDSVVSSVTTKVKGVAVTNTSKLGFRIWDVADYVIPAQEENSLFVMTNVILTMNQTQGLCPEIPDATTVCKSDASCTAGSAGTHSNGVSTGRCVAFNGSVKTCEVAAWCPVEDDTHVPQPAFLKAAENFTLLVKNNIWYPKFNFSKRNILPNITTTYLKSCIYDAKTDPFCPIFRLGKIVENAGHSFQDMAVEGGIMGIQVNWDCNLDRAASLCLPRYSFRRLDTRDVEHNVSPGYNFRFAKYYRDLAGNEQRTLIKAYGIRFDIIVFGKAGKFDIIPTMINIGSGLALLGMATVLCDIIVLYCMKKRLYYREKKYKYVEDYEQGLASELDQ

P2X purinoceptor 4 [2] = biological target: T1, P2X purinoceptor 4; experiment: Antagonist activity at human P2X4R transfected in 1321N1 cells; type: cell-based

SMILES: Cc1ccc(S(=O)(=O)N2c3ccccc3Oc3ccccc32)cc1
- IC50 (P2X purinoceptor 4 [1]): 1.4 µM
- IC50 (P2X purinoceptor 4 [2]): 3.3 µM
